Measured values published in patent US9249466 (AGENCY FOR SCIENCE TECHNOLOGY AND RESEARCH, dated 2016).

Target: T1, Myc-tagged PPP2R2B (PPP2R2B-Myc) (human, UniProt Q00005 1-443)
T1 construct: Expressed in 293T cells (transient) or in DLD1-PPP2R2B Tet-on cells (Dox-induced) and immunoprecipitated from lysates with anti-Myc tag antibody 9E10; In cells it stands within a PP2A complex with the A and C subunits; also called B55β-Myc; B55β; not shown: C-terminal myc-His tag of the vector pcDNA4/myc-hisB or pcDNA4/TO/myc-hisB
T1 sequence (looked up): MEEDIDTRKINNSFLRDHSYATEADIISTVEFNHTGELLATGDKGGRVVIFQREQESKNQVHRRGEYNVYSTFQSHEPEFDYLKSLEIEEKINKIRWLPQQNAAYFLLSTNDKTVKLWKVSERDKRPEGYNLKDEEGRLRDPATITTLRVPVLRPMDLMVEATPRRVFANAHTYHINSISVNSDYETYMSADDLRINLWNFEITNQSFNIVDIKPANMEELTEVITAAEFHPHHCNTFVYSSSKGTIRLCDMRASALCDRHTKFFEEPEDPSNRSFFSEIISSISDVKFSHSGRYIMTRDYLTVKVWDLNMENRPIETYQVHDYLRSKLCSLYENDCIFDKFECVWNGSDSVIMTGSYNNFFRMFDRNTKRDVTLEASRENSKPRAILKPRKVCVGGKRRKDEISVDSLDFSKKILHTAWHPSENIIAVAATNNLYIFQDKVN
Assay: co-immunoprecipitation from CRC cell lysates
Procedure: FIG. 3D. Co-immunoprecipitation of PP2A scaffolding A subunit and catalytic C subunit with PPP2R2B. DLD1-PPP2R2B or vector control cells were treated with Dox and PPP2R2B was immunoprecipitated with anti-Myc tag antibody. WCL, whole cell lysates.

binding result: no binding
B1: c-Myc (other, human, UniProt P01106 16-454, looked up)
chain: MPLNVSFTNRNYDLDYDSVQPYFYCDEEENFYQQQQQSELQPPAPSEDIWKKFELLPTPPLSPSRRSGLCSPSYVAVTPFSLRGDNDGGGGSFSTADQLEMVTELLGGDMVNQSFICDPDDETFIKNIIIQDCMWSGFSAAAKLVSEKLASYQAARKDSGSPNPARGHSVCSTSSLYLQDLSAAASECIDPSVVFPYPLNDSSSPKSCASQDSSAFSPSSDSLLSSTESSPQGSPEPLVLHEETPPTTSSDSEEEQEDEEEIDVVSVEKRQAPGKRSESGSPSAGGHSKPPHSPLVLKRCHVSTHQHNYAAPPSTRKDYPAAKRVKLDSVRVLRQISNNRKCTSPRSSDTEENVKRRTHNVLERQRRNELKRSFFALRDQIPELENNEKAPKVVILKKATAYILSVQAEEQKLISEEDLLRKRREQLKHKLEQLRNSCA
